{
  "sequences": {"note": "By UniProt entry, the sequences of proteins in these tests, tags left out. Where a name states a change or a piece, a line headed by the entry shows the natural chain unless it says otherwise.", "UniProt Q96KQ7": "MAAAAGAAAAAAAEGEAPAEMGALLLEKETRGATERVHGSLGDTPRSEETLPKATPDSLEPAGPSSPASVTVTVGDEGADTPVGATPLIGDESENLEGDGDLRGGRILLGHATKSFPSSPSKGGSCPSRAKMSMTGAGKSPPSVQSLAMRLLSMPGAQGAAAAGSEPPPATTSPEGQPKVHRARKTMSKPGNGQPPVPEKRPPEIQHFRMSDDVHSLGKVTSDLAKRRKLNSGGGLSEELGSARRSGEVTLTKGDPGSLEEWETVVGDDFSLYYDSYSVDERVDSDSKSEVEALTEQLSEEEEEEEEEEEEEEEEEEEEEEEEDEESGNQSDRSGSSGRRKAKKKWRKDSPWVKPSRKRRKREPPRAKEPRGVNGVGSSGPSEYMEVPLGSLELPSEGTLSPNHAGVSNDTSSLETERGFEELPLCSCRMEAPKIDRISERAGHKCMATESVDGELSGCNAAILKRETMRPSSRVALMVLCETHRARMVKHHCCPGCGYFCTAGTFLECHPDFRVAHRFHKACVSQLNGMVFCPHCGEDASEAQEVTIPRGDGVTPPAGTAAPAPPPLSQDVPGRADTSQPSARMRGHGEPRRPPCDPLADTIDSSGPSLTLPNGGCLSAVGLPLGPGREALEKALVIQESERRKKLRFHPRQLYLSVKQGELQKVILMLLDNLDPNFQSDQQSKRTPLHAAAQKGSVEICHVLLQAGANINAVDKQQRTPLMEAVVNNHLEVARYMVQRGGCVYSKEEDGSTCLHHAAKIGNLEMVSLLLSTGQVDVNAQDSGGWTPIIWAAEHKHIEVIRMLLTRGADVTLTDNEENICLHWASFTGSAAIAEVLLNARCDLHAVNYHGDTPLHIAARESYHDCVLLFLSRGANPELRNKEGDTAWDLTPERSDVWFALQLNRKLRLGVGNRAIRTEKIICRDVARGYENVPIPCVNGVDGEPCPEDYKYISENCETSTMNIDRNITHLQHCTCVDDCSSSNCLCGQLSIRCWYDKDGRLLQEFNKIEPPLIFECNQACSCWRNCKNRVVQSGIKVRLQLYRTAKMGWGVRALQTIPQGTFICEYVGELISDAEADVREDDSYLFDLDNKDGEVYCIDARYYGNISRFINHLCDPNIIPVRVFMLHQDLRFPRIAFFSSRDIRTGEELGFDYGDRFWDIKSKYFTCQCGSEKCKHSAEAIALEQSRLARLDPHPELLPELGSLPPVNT"},
  "source": "PubChem BioAssay AID504332",
  "about": "(National Center for Advancing Translational Sciences (NCATS), 2011)",
  "note": "Values joined by “and” are separate entries in the source; they are usually repeats but may differ in a detail not shown here. Equal values may be shown once. The list shows a part of the results, in another mix than the full data. Results filed as inconclusive are left out. Active and inactive are the calls of the source. The call rests on the fitted dose curve; in most records, active means well fitted inhibition curve with a large enough effect; inconclusive means small, poorly fitted or top-dose-only effect; inactive means no such curve, though single readings can be large or run the other way.",
  "data": [
    {"biological_target": "Histone-lysine N-methyltransferase EHMT2 (Homo sapiens) (UniProt Q96KQ7)", "assay": "qHTS Assay for Inhibitors of Histone Lysine Methyltransferase G9a; further: nearly all actives have a fitted effect of over 75% in size; further: potency means the concentration at half of the fitted maximal effect; on activity, negative = inhibition: on the % scale 0 is the no-effect control and ±100 the full control effect", "conditions": "G9a H3K9 monomethylation, AlphaScreen, 2 h; series mostly up to 102 µM; activity, negative = inhibition: at the top concentration", "values": [
      {"molecule": "O=P(Nc1nccs1)(c1ccccc1)c1nc2ccccc2s1", "note": "(stereo unspecified)", "Potency": "active: 1.26 µM"},
      {"molecule": "O=P(Nc1nccs1)(Oc1ccccc1)Oc1ccccc1", "activity, negative = inhibition": "inactive: -14.1% [at 59 µM]"},
      {"molecule": "CCOP1(=S)c2c(C)nn(CCC#N)c2N=C(c2ccccc2F)N1C", "note": "(stereo unspecified)", "activity, negative = inhibition": "inactive: -5.87% [at 12.7 µM]"},
      {"molecule": "O=C(O)COc1ccc([As](=O)(O)O)cc1[N+](=O)[O-]", "activity, negative = inhibition": "inactive: -40.5%"},
      {"molecule": "Nc1ccccc1[As](=O)(O)c1ccccc1", "activity, negative = inhibition": "inactive: 5.02%"},
      {"molecule": "NC(=O)Nc1ccc([As](=O)(O)O)cc1", "Potency": "inactive"},
      {"molecule": "CCOP1(=S)c2c(C)nn(CCC#N)c2N=C(c2ccc(F)cc2)N1C", "note": "(stereo unspecified)", "Potency": "active: 10 µM"},
      {"molecule": "CN(C(=O)Cc1ccccc1)[C@@H]1CC[C@]2(CCCO2)C[C@H]1N1CCCC1", "activity, negative = inhibition": "inactive: 10.7% [at 59 µM]"},
      {"molecule": "N#CCCN(C(=O)COC(=O)C(O)(c1ccccc1)c1ccccc1)c1ccc(F)cc1", "activity, negative = inhibition": "inactive: -29.3%"},
      {"molecule": "CS(=O)(=O)c1ccc(Cl)c(NC(=O)COC(=O)C(O)(c2ccccc2)c2ccccc2)c1", "activity, negative = inhibition": "inactive: 17.1%"},
      {"molecule": "COc1cc(C(=O)NCC2(N3CCOCC3)CCCCC2)cc(Cl)c1OC(C)C", "activity, negative = inhibition": "inactive: -5.23%"},
      {"molecule": "O=[As](O)(O)c1cccnc1", "Potency": "active: 39.8 µM"},
      {"molecule": "CN(C(=O)Cc1ccc(Cl)c(Cl)c1)[C@@H]1CC[C@]2(CCCO2)C[C@H]1N1CCCC1", "activity, negative = inhibition": "inactive: 38.4% [at 59 µM]"},
      {"molecule": "O=[As](O)(c1cccc(O)c1)c1cccc(O)c1", "activity, negative = inhibition": "inactive: 8.39%"},
      {"molecule": "Cc1cccc(OCC(=O)OC2CN3CCC2CC3)c1", "note": "(stereo unspecified)", "activity, negative = inhibition": "inactive: -27.1% [at 59 µM]"},
      {"molecule": "CCCOP(=S)(Nc1nc(N)cc(=O)[nH]1)OCCC", "activity, negative = inhibition": "inactive: 13.7%"},
      {"molecule": "Cc1ccc(NCCc2c([N+](=O)[O-])cc([N+](=O)[O-])cc2[N+](=O)[O-])cc1", "Potency": "active: 11.2 µM"},
      {"molecule": "CCOP(=O)(Nc1cccc2ccccc12)OCC", "activity, negative = inhibition": "inactive: -70.6%"},
      {"molecule": "COc1cc(C2NCCC3(OCCO3)C2(C)C)cc(OC)c1OC", "note": "(stereo unspecified)", "activity, negative = inhibition": "inactive: 16.4% [at 59 µM]"},
      {"molecule": "CN(CCCl)Cc1cc(Cl)c(NC2=NCCN2)c(Cl)c1", "Potency": "active: 39.8 µM and active: 9.47 µM"},
      {"molecule": "CCOP(=O)(Nc1ccc(C)cn1)OCC", "activity, negative = inhibition": "inactive: -1.3%"},
      {"molecule": "CCOP(=O)(NC(=NC(C)c1ccccc1)NC(C)c1ccccc1)OCC", "note": "(stereo unspecified)", "activity, negative = inhibition": "inactive: -1.39%"},
      {"molecule": "CCC1=CC2Cc3nc4ccc(Cl)cc4c(N)c3C(C1)C2", "note": "(stereo unspecified)", "activity, negative = inhibition": "inactive: -10.9% [at 0.501 µM]"},
      {"molecule": "O=P1(Nc2ccccn2)COc2ccccc2OC1", "activity, negative = inhibition": "inactive: -23.9% [at 12.7 µM]"},
      {"molecule": "CC(C)(C)C(=O)NC(Sc1ncccn1)C(Cl)(Cl)Cl", "note": "(stereo unspecified)", "Potency": "active: 50.1 µM"},
      {"molecule": "Clc1n[nH]nc1-c1nn[nH][15n]1", "Potency": "active: 22.4 µM"},
      {"molecule": "COc1ccccc1CNC(=O)COC(=O)C(O)(c1ccccc1)c1ccccc1", "activity, negative = inhibition": "inactive: -7.71%"},
      {"molecule": "O=[As](O)(c1ccccc1Br)c1ccccc1Br", "activity, negative = inhibition": "inactive: 2.08%"},
      {"molecule": "CC(C)/C=N\\N=C(\\N)N[N+](=O)[O-]", "activity, negative = inhibition": "inactive: -25.4%"},
      {"molecule": "CC1CCC(C(C)C)C(OP(=O)(Nc2ccccn2)c2ccccc2)C1", "note": "(stereo unspecified)", "Potency": "active: 39.8 µM"},
      {"molecule": "Cc1nn(-c2ccccc2)c2c1P(=O)(N1CCOCC1)N(C)C(c1ccccc1)=N2", "note": "(stereo unspecified)", "activity, negative = inhibition": "inactive: -4.18% [at 12.7 µM]"},
      {"molecule": "O=C(/C=C/c1ccccc1)OC1CN2CCC1CC2", "note": "(stereo unspecified)", "Potency": "active: 56.2 µM"},
      {"molecule": "NS(=O)(=O)c1cccc(NC(=O)COC(=O)C(O)(c2ccccc2)c2ccccc2)c1", "activity, negative = inhibition": "inactive: -9.19% [at 12.7 µM]"},
      {"molecule": "O=P1(Nc2ccc(Br)cn2)COc2ccccc2OC1", "activity, negative = inhibition": "inactive: -42.9% [at 12.7 µM]"},
      {"molecule": "O=[As](O)(c1cccs1)c1cccs1", "activity, negative = inhibition": "inactive: 21.1% [at 0.501 µM]"},
      {"molecule": "Nc1cccc([As](=O)(O)c2ccccc2)c1", "activity, negative = inhibition": "inactive: 3.41%"},
      {"molecule": "CCOC(=O)Nc1ccc([As](=O)(O)O)c(O)c1", "activity, negative = inhibition": "inactive: -40.5%"},
      {"molecule": "CCCCOc1ccc(C(=O)NCC2(N3CCCCC3)CCCCC2)cc1OC", "activity, negative = inhibition": "inactive: 8.63%"},
      {"molecule": "CCOC(=O)Nc1cccc([As](=O)(O)O)c1", "activity, negative = inhibition": "inactive: -0.328% [at 2.33 µM]"},
      {"molecule": "Cc1cc(SC(NC=O)C(Cl)(Cl)Cl)ncn1", "note": "(stereo unspecified)", "Potency": "active: 3.55 µM"},
      {"molecule": "COP1(=S)c2c(C)nn(CCC#N)c2N=C(c2ccc(F)cc2)N1C", "note": "(stereo unspecified)", "activity, negative = inhibition": "inactive: 5.03% [at 12.7 µM]"},
      {"molecule": "O=C(Nc1ccncc1[N+](=O)[O-])c1ccc([N+](=O)[O-])cc1[N+](=O)[O-]", "activity, negative = inhibition": "inactive: -14.7%"},
      {"molecule": "O=C(COc1ccccc1)OC1CN2CCC1CC2", "note": "(stereo unspecified)", "activity, negative = inhibition": "inactive: -47% [at 12.7 µM]"},
      {"molecule": "CCOC(=O)c1ccc(NC(=O)C(C)(CCl)SC)cc1", "note": "(stereo unspecified)", "Potency": "active: 50.1 µM"},
      {"molecule": "O=C(OC1CN2CCC1CC2)c1cccc([N+](=O)[O-])c1", "note": "(stereo unspecified)", "activity, negative = inhibition": "inactive: -20.5%"},
      {"molecule": "CCC(C)N(CC(C)C)C(=S)SC(NC(C)=O)C(Cl)(Cl)Cl", "note": "(stereo unspecified)", "Potency": "active: 22.4 µM"},
      {"molecule": "O=C(OC1CN2CCC1CC2)C12CC3CC(CC(C3)C1)C2", "note": "(stereo unspecified)", "Potency": "active: 56.2 µM"},
      {"molecule": "Cc1c2c(nc3ccccc13)SC(C(Cl)Cl)C2", "note": "(stereo unspecified)", "activity, negative = inhibition": "inactive: 2.33%"},
      {"molecule": "COc1ccc2nc(NP(=O)(c3ccccc3)c3ccccc3)sc2c1", "activity, negative = inhibition": "inactive: -32.8%"},
      {"molecule": "COc1ccc(N/C(=N/P(=O)(N2CCOCC2)N2CCOCC2)N2CCOCC2)cc1", "activity, negative = inhibition": "inactive: -31.7%"},
      {"molecule": "COc1cc(C(=O)NCC2(N3CCOCC3)CCCCC2)ccc1OCC(C)C", "activity, negative = inhibition": "inactive: 11.2% [at 12.7 µM]"},
      {"molecule": "C[As](=O)(O)c1cccc(C(=O)O)c1", "activity, negative = inhibition": "inactive: -5.57% [at 2.33 µM]"},
      {"molecule": "Cc1ccc2nc3c(c(C)c2c1)CC(C(Cl)Cl)S3", "note": "(stereo unspecified)", "activity, negative = inhibition": "inactive: 17.8% [at 59 µM]"},
      {"molecule": "Cc1ccc(OP(=O)(Nc2ccc([N+](=O)[O-])cn2)Oc2ccc(C)cc2)cc1", "Potency": "active: 28.2 µM"},
      {"molecule": "CC(C)c1ccc(OP(=O)(Nc2ccccn2)Oc2ccccc2F)cc1", "note": "(stereo unspecified)", "activity, negative = inhibition": "inactive: 9.19%"},
      {"molecule": "O=[N+]([O-])c1cc([N+](=O)[O-])c(-c2ccn[nH]2)s1", "Potency": "active: 50.1 µM"},
      {"molecule": "CC(C)NC(=O)NP(=O)(Oc1ccccc1)Oc1ccccc1", "activity, negative = inhibition": "inactive: -7.38% [at 0.0925 µM]"},
      {"molecule": "O=C(O)c1ccccc1[As](=O)(O)O", "activity, negative = inhibition": "inactive: -21.1%"},
      {"molecule": "CC(=O)Nc1ccc([As](=O)(O)O)cc1", "activity, negative = inhibition": "inactive: -13.7% [at 2.33 µM]"},
      {"molecule": "Cc1ccc(NP(=O)(Oc2ccccc2F)Oc2ccccc2F)nc1", "activity, negative = inhibition": "inactive: -44.2%"},
      {"molecule": "CCOP(=O)(Nc1ccccc1)OCC", "Potency": "inactive"},
      {"molecule": "Cc1cc(SC(NC(=O)c2ccc(F)cc2)C(Cl)(Cl)Cl)ncn1", "note": "(stereo unspecified)", "Potency": "active: 2.51 µM"},
      {"molecule": "O=[N+]([O-])c1cc([N+](=O)[O-])c(CCN2CCOCC2)c([N+](=O)[O-])c1", "activity, negative = inhibition": "inactive: 8.19% [at 2.33 µM]"},
      {"molecule": "CCN(N=Nc1nonc1N)c1nonc1N", "activity, negative = inhibition": "inactive: -3.49% [at 59 µM]"},
      {"molecule": "NC(=O)c1cc([N+](=O)[O-])cc([N+](=O)[O-])c1N", "activity, negative = inhibition": "inactive: 18.6%"},
      {"molecule": "Cc1ccc(N/C(=N/P(=O)(N2CCOCC2)N2CCOCC2)N2CCOCC2)cc1", "activity, negative = inhibition": "inactive: -31.5%"}
    ]}
  ]
}
